Results published in patent US20250034165A1, “COMPOUND CONTAINING CYCLOALKYL OR HALOALKYL” (CHIA TAI TIANQING PHARMACEUTICAL GROUP CO., LTD., priority 2021, published 2025).

Protein sequences, listed by entry. Tags and fused reporters are not part of them. Lines headed by an entry give the natural chain unless they say otherwise; changes in a name come on top. Chains listed by the source or under a name are the forms on record and can include a tag or linker. Residues count along the entry.
UniProt P00533, 25-1210 T790M/L858R limits assumed: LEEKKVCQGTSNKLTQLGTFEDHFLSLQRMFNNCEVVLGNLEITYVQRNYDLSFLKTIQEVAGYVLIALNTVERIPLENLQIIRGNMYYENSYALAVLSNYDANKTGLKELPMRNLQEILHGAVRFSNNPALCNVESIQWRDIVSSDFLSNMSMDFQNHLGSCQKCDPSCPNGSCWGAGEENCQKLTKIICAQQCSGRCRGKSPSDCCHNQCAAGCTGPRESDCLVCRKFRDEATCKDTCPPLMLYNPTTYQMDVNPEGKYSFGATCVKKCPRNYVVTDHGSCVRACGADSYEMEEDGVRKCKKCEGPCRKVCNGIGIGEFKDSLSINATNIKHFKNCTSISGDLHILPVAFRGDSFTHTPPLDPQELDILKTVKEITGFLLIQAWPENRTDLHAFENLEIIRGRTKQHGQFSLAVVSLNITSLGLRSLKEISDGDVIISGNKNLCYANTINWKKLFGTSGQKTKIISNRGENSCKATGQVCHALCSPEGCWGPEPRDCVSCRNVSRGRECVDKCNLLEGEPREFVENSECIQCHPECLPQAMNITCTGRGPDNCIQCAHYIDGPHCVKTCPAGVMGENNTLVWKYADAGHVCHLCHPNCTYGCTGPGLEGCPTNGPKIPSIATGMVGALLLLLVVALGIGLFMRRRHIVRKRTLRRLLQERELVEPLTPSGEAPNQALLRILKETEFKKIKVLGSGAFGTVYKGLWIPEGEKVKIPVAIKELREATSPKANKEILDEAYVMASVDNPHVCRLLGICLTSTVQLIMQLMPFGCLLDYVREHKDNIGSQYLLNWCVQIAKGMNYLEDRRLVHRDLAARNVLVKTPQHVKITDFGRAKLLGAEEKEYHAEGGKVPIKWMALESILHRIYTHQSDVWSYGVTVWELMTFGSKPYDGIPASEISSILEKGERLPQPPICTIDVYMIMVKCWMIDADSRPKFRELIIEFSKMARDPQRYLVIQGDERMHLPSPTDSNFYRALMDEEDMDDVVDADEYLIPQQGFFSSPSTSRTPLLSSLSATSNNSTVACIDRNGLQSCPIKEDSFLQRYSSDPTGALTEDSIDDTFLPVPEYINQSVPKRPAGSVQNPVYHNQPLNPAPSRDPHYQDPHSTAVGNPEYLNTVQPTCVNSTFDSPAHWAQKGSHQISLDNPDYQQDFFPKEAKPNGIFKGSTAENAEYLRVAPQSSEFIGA
UniProt P00533, with tags, fused parts or gaps limits assumed, stated change not applied: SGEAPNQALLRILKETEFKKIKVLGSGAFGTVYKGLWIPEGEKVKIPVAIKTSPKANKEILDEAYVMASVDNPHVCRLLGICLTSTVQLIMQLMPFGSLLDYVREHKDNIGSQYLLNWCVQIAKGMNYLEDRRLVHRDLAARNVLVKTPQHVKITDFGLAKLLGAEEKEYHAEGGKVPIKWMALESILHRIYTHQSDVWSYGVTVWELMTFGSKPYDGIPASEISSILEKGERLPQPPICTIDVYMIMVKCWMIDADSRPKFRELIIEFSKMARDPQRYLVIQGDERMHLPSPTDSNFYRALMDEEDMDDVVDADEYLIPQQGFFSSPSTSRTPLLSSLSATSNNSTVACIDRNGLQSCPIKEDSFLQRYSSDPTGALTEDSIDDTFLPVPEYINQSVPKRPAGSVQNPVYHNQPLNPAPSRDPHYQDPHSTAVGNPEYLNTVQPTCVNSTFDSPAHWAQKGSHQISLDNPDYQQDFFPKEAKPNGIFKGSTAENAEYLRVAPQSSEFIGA

Experiments:
[1] = biological target: EGFR (d746-750/T790M/C797S) (Homo sapiens (Human), UniProt P00533, C797S/DEL746-750/T790M); assay: Inhibitory activity for EGFR (d746-750/T790M/C797S) kinase; details: read-out: EGFR(d19/T790M/C797S) (IC50); ATP 5 μM
Protocol: 1.5 Screening for Inhibitory Activity for EGFR (d746-750/T790M/C797S) Kinase
(§1) A 50 ng/μL EGFR (d746-750/T790M/C797S, BPS) stock solution was diluted with a kinase buffer (50 mM HEPES, 10 mM MgCl2, 2 mM DTT, 1 mM EGTA, 0.01% Tween 20), and 6 μL of 1.67× working solution at 0.05 ng/μL (final concentration: 0.03 ng/μL) was added to each well. Different compounds dissolved in DMSO were added to the wells using a nanoliter pipettor, resulting in the final concentrations of the compounds of 10 nM to 0.0024 nM (4-fold gradient for 7 concentrations in total), and blank control wells (without enzyme) and negative control wells (with enzyme, plus vehicle DMSO) were set, 2 replicate wells for each concentration. After enzyme was reacted with the compound or vehicle for 30 min, 5×ATP at 25 μM (final concentration: 5 μM, Sigma) prepared with a kinase buffer was mixed with 5× substrate at 0.5 μM (final concentration: 0.1 μM, ULight-poly GT, PerkinElmer) at a ratio of 1:1 (v:v), and the mixture was added to each well at 4 μL/well. After being sealed with a film, the plate was incubated at room temperature for 2 h, and then 5 μL of 4×EDTA at 40 mM (final concentration: 10 mM) was added to each well. After the plate was incubated for 5 min at room temperature, 5 μL of 4× detection reagent at 8 nM (final concentration: 2 nM, Eu-anti-phospho-tyrosine antibody, PerkinElmer) was added to each well. After being incubated at room temperature for 1 h, the plate was read using a PerkinElmer Envision multi-mode microplate reader (excitation: 320 nm, emission: 665 nm), and IC50 was calculated by four-parameter fitting.

EGFR (L858R/T790M) = EGFR (L858R/T790M) (Homo sapiens (Human), UniProt P00533, L858R/T790M); assay: Inhibitory activity for EGFR (L858R/T790M) kinase; details: read-out: EGFR(L858R/T790M) (IC50); ATP 5 μM
Protocol: as §1, with “(L858R/T790M, Carna)” for “(d746-750/T790M/C797S, BPS)”, “0.004175” for “0.05”, “0.0025” for “0.03”, “to” for “to the”, “gradient,” for “gradient for”

[2] = system: BAF3-EGFR (L858R/T790M/C797S) cells; assay: Inhibition of proliferation of BAF3-EGFR (L858R/T790M/C797S) cells, CCK-8; details: read-out: BAF3(EGFR T790M L858R C797S) cell inhibitory activity IC50, 72 h
Protocol: (§2) A flask of EGFR (L858R/T790M/C797S) cells in the logarithmic growth phase and good conditions was taken, and the cells were collected and added to a centrifuge tube. 20 μL of cells were taken and counted, and the required number of cells (mL) was pipetted and centrifuged at 1200 rpm for 3 min. The supernatant was discarded, and an appropriate amount of plating medium (RPMI medium+10% FBS) was added to adjust the cell density to 1.5×10^5 cells/mL. The cells were seeded on a 96-well plate at 100 μL/well using a multi-channel pipette and cultured in a cell incubator at 37° C., 5% CO2 with saturated humidity. After overnight incubation, compounds were loaded using a nanoliter pipettor, 2 duplicate wells were set for each concentration, and cells without compound added were used as negative controls. After 72 h, CCK-8 was added at 10 μL/well for incubation for 2 h, then absorbance was measured at 450 nm with an Envision plate reader, and inhibition rate was calculated.
(§3) Inhibition rate (%)=(mean value of negative control group-mean value of experimental group)/(mean value of negative control group−mean value of blank group)×100%.
(§4) A dose-response curve was fitted by four-parameter analysis, with the logarithm of compound concentration serving as abscissa and inhibition rate serving as ordinate, such that IC50 was calculated.

[3] = system: BAF3-EGFR (del19/T790M/C797S) cells; assay: Inhibition of proliferation of BAF3-EGFR (Del19/T790M/C797S) cells, CCK-8; details: read-out: BAF3(EGFR T790M Del19 C797S) cell inhibitory activity IC50, 72 h
Protocol: as §2, with “BAF3-EGFR (del19/T790M/C797S)” for “EGFR (L858R/T790M/C797S)”, “1.0×10^5” for “1.5×10^5”
as §3, §4

IC50 [1] [nM]	IC50 (EGFR (L858R/T790M)) [nM]	Compound	IC50 [2] [nM]	IC50 [3] [nM]
0.022	0.022	Cc1cc2cc(n1)-c1cnn(C)c1OCCC[C@@H](C1CC1)CN1C(=NC2=O)Nc2cc(NC3COC3)ccc21		
0.062	0.068	Cc1cc2cc(n1)-c1cnn(C3CC3)c1OCCC[C@@H](C)CN1C(=NC2=O)Nc2cc(NC3COC3)ccc21		
0.019	0.027	Cc1cc2cc(n1)-c1cnn(C3CC3)c1OCCC[C@@H](C)CN1C(=NC2=O)Nc2ccc(NC3CCN(C)CC3)cc21	< 5	< 1

Second part, the molecule before the results:

Compound	IC50 [1] [nM]	IC50 (EGFR (L858R/T790M)) [nM]	IC50 [2] [nM]	IC50 [3] [nM]
Cc1cc2cc(n1)-c1cnn(C)c1OCCC[C@@H](CC1CC1)CN1C(=NC2=O)Nc2cc(NC3COC3)ccc21	0.056	0.51		
CCN(CC)CCNc1ccc2c(c1)N1C[C@H](C3CC3)CCCOc3c(cnn3C)-c3cc(cc(C)n3)C(=O)N=C1N2	0.02	0.017	< 5	< 1
Cc1cc2cc(n1)-c1cnn(C)c1OCCC[C@@H](C1CC1)CN1C(=NC2=O)Nc2cc(NC(C)C3COC3)ccc21 (single isomer, unassigned)		0.066	< 5	< 1
CNCCNc1ccc2c(c1)N1C[C@H](C3CC3)CCCOc3c(cnn3C)-c3cc(cc(C)n3)C(=O)N=C1N2	0.021	0.016		
Cc1cc2cc(n1)-c1cnn(C)c1OCCC[C@@H](C1CC1)CN1C(=NC2=O)Nc2ccc(CN3CCN(C)CC3)cc21	0.02	0.029	< 5	< 1
